Measured values published in publication PMC5638916, “CETSA quantitatively verifies in vivo target engagement of novel RIPK1 inhibitors in various biospecimens” (Scientific Reports, 2017).

By UniProt entry, the sequences of proteins in these tests, tags left out. Residues count along the entry.
UniProt Q13546, 1-375 limits assumed: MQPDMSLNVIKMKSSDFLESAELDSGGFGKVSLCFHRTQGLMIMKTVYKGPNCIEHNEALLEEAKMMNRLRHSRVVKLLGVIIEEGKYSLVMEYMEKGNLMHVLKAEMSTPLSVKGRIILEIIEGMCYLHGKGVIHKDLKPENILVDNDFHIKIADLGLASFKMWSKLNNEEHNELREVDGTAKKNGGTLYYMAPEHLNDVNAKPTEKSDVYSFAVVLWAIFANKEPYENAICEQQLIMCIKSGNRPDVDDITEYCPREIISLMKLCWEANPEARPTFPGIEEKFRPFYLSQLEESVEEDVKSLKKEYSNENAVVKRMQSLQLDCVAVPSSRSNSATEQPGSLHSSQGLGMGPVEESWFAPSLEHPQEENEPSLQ
UniProt Q13546, whole entry: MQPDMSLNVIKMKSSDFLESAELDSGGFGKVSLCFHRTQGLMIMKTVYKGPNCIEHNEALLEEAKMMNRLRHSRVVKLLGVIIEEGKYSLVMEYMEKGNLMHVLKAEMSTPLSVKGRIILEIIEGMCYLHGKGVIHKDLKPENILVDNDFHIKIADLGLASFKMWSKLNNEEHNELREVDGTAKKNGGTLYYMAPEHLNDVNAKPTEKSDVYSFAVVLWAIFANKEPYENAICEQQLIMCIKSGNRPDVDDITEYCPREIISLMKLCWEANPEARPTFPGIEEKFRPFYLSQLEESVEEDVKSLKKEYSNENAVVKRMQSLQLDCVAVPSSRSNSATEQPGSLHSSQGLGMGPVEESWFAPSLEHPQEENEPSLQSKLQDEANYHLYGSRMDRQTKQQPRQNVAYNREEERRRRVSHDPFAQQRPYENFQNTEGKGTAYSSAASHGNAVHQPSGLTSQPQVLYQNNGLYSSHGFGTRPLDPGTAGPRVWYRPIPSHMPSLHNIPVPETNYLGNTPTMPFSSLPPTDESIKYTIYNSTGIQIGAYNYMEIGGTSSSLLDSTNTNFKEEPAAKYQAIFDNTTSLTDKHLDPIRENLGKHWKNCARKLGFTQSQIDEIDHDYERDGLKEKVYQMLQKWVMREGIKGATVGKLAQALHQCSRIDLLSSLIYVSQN

Tests used:
[1] = target: T1, human RIPK1 (Homo sapiens, UniProt Q13546); assay: Competition recombinant enzyme binding assay (TR-FRET), human RIPK1; settings: read-out: hRIPK1 enzyme (Ki), recombinant GST-His-human RIPK1 (1-375), 95% CI in brackets
[2] = tested on: HT-29 cells; assay: HT-29 necroptosis assay; assay type: cell-based, human; settings: read-out: HT29-Necroptosis (IC50), TNF-α + AT-406 + zVAD-FMK, 16–20 h
[3] = target: T1, human RIPK1; assay: CETSA (Tagg curves and ITDRF) for human RIPK1 with HT-29 cells; assay type: cell-based; settings: read-out: human_ITDRF-CETSA (EC50), compound 30 min, 47 °C for 8 min denature, independent runs reported

How did the Ki [1] turn out when `CN1C(=O)[C@@H](N2CCc3cn(Cc4ccc(C#N)cc4)nc3C2=O)COc2ccccc21` was run?
Its Ki is 58 nM.

And the IC50 [2]?
The IC50 was 200 nM.

`CN1C(=O)[C@@H](N2CCc3cn(Cc4ccccc4)nc3C2=O)COc2cc(C#N)ccc21` was tested. Which Ki [1] did it give?
Its Ki is 5.8 nM.

And the EC50 [3]?
Its EC50 is 4 nM.

And the IC50 [2]?
The IC50 was 24 nM.
